One compound from paper PMC8228819, “Comparison of a Short Linear Antimicrobial Peptide with Its Disulfide-Cyclized and Cyclotide-Grafted Variants against Clinically Relevant Pathogens” (Microorganisms, 2021) can be followed below.

Converted amounts (≈) assume the structure as drawn. Read-outs that look alike come from different tables or passages of the source.

In the experiment the test system is Escherichia coli, ATCC 25922. The experiment is classed as cell-based. To be noted: single measurement (asterisk). The procedure: The following strains were used in this study: Escherichia coli, ATCC 25922, Staphylococcus aureus, epidemic methicillin-resistant EMRSA-15, Klebsiella pneumoniae, clinical isolate from St George’s, University of London (SGUL, London, UK), Acinetobacter baumannii, clinical isolate from SGUL, Pseudomonas aeruginosa, PA01 wildtype strain, and Enterococcus faecalis, vancomycin-resistant ATCC 51299.
The minimal inhibitory concentration (MIC) was determined in a microdilution assay using Mueller–Hinton (MH) or Brain Heart Infusion Broth (BHI) broth following a previously published protocol. Briefly, a twofold serial dilution of the antibiotics and peptides were prepared and added to a bacteria solution, resulting in 2–5 10^5 CFU/mL. The microtiter plates (polypropylene, Corning, Corning, NY, USA) were incubated for 18 h at 37 °C and MICs were taken visually. Based on our experience with proline rich peptides, their low activity in Mueller–Hinton broth, and their strong activity in diluted broth, we decided to also measure the activity of the peptide set in a 1/5 dilution of the broth. MICs in the presence of serum were established using human serum (Zen-Bio, Durham, NC, USA) and heat-inactivated serum (Sigma-Aldrich, St. Louis, MO, USA). A total of 20% (v/v) of each human serum was mixed with bacterial solution and added to predetermined concentrations of antibiotics and peptides, resulting in a final 10% (v/v) concentration of serum and 2–5 × 10^5 bacteria.

For the compound `CC[C@H](C)[C@H](NC(=O)CN)C(=O)NCC(=O)N[C@@H](C)C(=O)N[C@H](C(=O)N[C@@H](CC(C)C)C(=O)N[C@@H](CCCCN)C(=O)N[C@H](C(=O)N[C@@H](CC(C)C)C(=O)N[C@H](C(=O)N[C@H](C(=O)NCC(=O)N[C@@H](CC(C)C)C(=O)N1CCC[C@H]1C(=O)N[C@@H](C)C(=O)N[C@@H](CC(C)C)C(=O)N[C@H](C(=O)N[C@@H](CO)C(=O)N[C@@H](Cc1c[nH]c2ccccc12)C(=O)N[C@H](C(=O)N[C@@H](CCCCN)C(=O)N[C@@H](CCCNC(=N)N)C(=O)N[C@@H](CCCCN)C(=O)N[C@@H](CCCNC(=N)N)C(=O)N[C@@H](CCC(N)=O)C(=O)N[C@@H](CCC(N)=O)C(N)=O)[C@@H](C)CC)[C@@H](C)CC)[C@@H](C)O)[C@@H](C)O)C(C)C)C(C)C` [Melittin, reference compound], the minimal inhibitory concentration (MIC) (commonly the lowest concentration found to suppress growth) by setting is: (1/5 MH + 10% heat inactivated human serum) 11 µM; (1/5 MH + 10% human serum) 11 to 22 µM; (1/5 MH) 3 µM (≈ 8.54 µg/mL); (MH) 16 µM (≈ 45.5 µg/mL).
